Measurements published in PubChem BioAssay AID1345086 (University of Iowa High-Throughput Screening Core (UIHTS), 2018).
This is a selection; strong and weak results do not stand in their true shares. Activity calls are given as the source filed them.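 Rule for the calls: active = compounds killing one labelled cell type while sparing the other, by normalised counts and ratio limits, not self-fluorescent; inactive = the rest.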

Assay: differential killing of epithelial or mesenchymal cells, primary screen, imaging, PC-3E GFP, TEM4-18 mCherry, co-culture (AID 1345086);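 note: normalised mesenchymal count divided by normalised epithelial count so high means epithelial killing; cells exposed to compound for 72 h before imaging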
Details: imaging cell counts, at 1 µM, actives lie on both sides, counts scaled to control wells, 1 = unselective

SMILES | red/green cell ratio (normalised)
NC(=O)Nc1ccc([As](=O)(O)O)cc1 | inactive: 1.06
O=P(O)(O)F | inactive: 0.95
O=C(O[C@H]1CN2CCC1CC2)C1NCc2ccccc2[C@@H]1c1ccccc1 (stereo partly drawn) | inactive: 1.09
